The test system of data set [1] is Pgp-green fluorescent protein fusion protein. Particulars: MDCK, cited from earlier work.
The subject of data set [2] is Pgp.
The subject of a further data set is GFP-Pgp. The following applies: MDR29 cells.
In data set [3] the test system is Pgp. The following applies: MDR29 cells, 48 hours after MMC.

Here are results for one compound from US7585639B1, “Methods for modulating ATP-binding cassette transmembrane reporter protein expression” (Trustees of Dartmouth College, priority 1999, dated 2009).

Molecules are shown by their SMILES.

Turning to `CO[C@@]12[C@H](COC(N)=O)C3=C(C(=O)C(C)=C(N)C3=O)N1C[C@@H]1N[C@@H]12` [MMC, mitomycin C], the “membrane levels of Pgp-GFP” value in data set [1] (6-18 hours after treatment) is reported as “increase”. In addition, the “membrane levels of Pgp-GFP relative to control” value in data set [1] (by 40 to 60 hours, then return to normal) is reported as “half the control value”. In addition, in the data set on Pgp [2], the “MDR1 mRNA and subsequent Pgp protein expression” value was “significant decrease”; the “time at which Pgp protein levels were at their lowest” value lay within 48 to 84 h; the “total and membrane Pgp” value is given as “levels well below control”; the “total cellular Pgp levels” value is listed as “unchanged”. In addition, in the data set on Pgp [2], the “transient increase in membrane-associated Pgp” value is “approximately two-fold”. Moreover, in the data set on GFP-Pgp (by 24 hours, remained low through 72 hours), the “Pgp levels relative to controls” value is on record as “approximately half”. For the same compound, in the data set on GFP-Pgp (single non-cytotoxic dose, 6-12 hours after treatment), the “initial increase in membrane GFP-Pgp” value is “two-fold”. Besides, the daunorubicin accumulation entry in the data set on Pgp [3] is “significant increase”.
